Patent US10351558B2, “Factor IXa inhibitors” (Merck Sharp & Dohme Corp., priority 2015, dated 2019)
Where a name gives a salt, the structure may show the parent alone.

By UniProt entry, the sequences of proteins in these tests, tags left out. Residues count along the entry.
UniProt P00740, 227-461: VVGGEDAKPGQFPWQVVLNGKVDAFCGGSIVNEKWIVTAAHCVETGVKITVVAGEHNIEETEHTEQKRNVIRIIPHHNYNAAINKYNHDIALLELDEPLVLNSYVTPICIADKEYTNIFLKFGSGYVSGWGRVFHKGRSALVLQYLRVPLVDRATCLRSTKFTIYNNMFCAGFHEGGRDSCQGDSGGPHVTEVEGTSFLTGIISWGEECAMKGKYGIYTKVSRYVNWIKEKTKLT
UniProt P00740, 47-191 partner: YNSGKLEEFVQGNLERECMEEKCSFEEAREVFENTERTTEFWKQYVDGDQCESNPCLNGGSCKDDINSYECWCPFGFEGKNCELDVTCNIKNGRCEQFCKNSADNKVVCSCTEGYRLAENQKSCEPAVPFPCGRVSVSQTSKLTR

biological target: hFIXa (Homo sapiens (Human), UniProt P00740); assay: Determination of inhibitory activity against Factor IXa (cleavage of fluorescent peptide CH3SO2-D-CHG-Gly-Arg-AFC); format: biochemical

| IC50 [nM] | SMILES |
| --- | --- |
| 39.3 | Cc1ccc2c(c1)nc1n2CC(NC(=O)c2ccc(-n3cnc(C)n3)cc2Cl)(c2ccc(F)cc2)CC1(F)F (single isomer, unassigned) [Example 104, 2-chloro-N-(4,4-difluoro-2-(4-fluorophenyl)-7-methyl-1,2,3,4-tetrahydrobenzo[4,5]imidazo[1,2-a]pyridin-2-yl)-4-(3-methyl-1H-1,2,4-triazol-1-yl)benzamide] |
| 3.33 | C/C(=N\O)c1c2n(c3ccc(C)cc13)C[C@@](NC(=O)c1ccc(-n3cnnc3)cc1Cl)(c1ccccc1)CC2 [Example 146, (E)-2-chloro-N-(10-(1-(hydroxyimino)ethyl)-2-methyl-7-phenyl-6,7,8,9-tetrahydropyrido[1,2-a]indol-7-yl)-4-(4H-1,2,4-triazol-4-yl)benzamide, TFA] |
| 3.59 | Cc1ccc2c(c1)c(CCC(=O)O)c1n2C[C@@](NC(=O)c2ccc(-n3cnnc3)cc2)(c2ccccc2)CC1 [Example 133] |
| 5.78 | Cc1ccc2c(c1)c(-c1ccc(CO)nc1)c1n2C[C@@](NC(=O)c2ccc(-n3cnnc3)cc2Cl)(c2ccccc2)CC1 [Example 202] |
| 2.82 | Cc1ccc2c(c1)nc1n2CC(NC(=O)c2ccc(-n3cnc(C)n3)cc2Cl)(c2ccccc2)CC1(F)F (centres unmarked) [Example 97] |
| 7.8 | CCCn1cc(C2(NC(=O)c3c(Cl)cc(-n4cnc(C)n4)cc3Cl)CCc3nn4cc(C)ccc4c3C2)nn1 (centres unmarked) [Example 45] |
| 2.72 | Cc1cc2nc3n(c2cc1C)C[C@@](NC(=O)c1ccc(-n2cnnc2)cc1Cl)(c1ccccc1)CC3 [Example 65] |
| 17.9 | Cc1ccc2c3c(nn2c1)CCC(NC(=O)c1ccc(-n2cnc(C)n2)cc1Cl)(c1cn(C(C)C)nn1)C3 (centres unmarked) [Example 27] |
| 11.6 | Cc1ccc2c(c1)nc1n2CC(NC(=O)c2ccc(-n3cnc(C)n3)cc2Cl)(c2cc(F)cc(F)c2)CC1 (centres unmarked) [Example 96] |
| 12.1 | Cc1cc(O)c2c3c(nn2c1)CCC(NC(=O)c1ccc(-n2cnc(C)n2)cc1Cl)(c1ccccc1)C3 (centres unmarked) [Example 14] |
| 4.12 | C/C(=N\O)c1c2n(c3ccc(C)cc13)C[C@@](NC(=O)c1ccc(-n3cnc(C)n3)cc1Cl)(c1ccccc1)CC2 [Example 162] |
| 5.3 | Cc1ccc2c(c1)c(S(C)(=O)=O)c1n2C[C@@](NC(=O)c2c(Cl)cc(-n3cnnc3)cc2Cl)(c2ccccc2)CC1 [Example 205, (S)-2,6-dichloro-N-(2-methyl-10-(methylsulfonyl)-7-phenyl-6,7,8,9-tetrahydropyrido[1,2-a]indol-7-yl)-4-(4H-1,2,4-triazol-4-yl)benzamide] |
| 5.55 | Cc1ccc2c(c1)nc1n2C[C@@](NC(=O)c2ccc(-c3cncnc3)cc2Cl)(c2ccccc2)CC1 [Example 61] |
| 2.78 | Cc1ccc(O)c2c3c(nn12)CC[C@@](C)(NC(=O)c1ccc(-n2cnc4cc(C(=O)O)ccc42)cc1Cl)C3 [Example 24] |
| 10.3 | Cc1ccc2c3c(nn2c1)CCC(NC(=O)c1c(Cl)cc(-n2cnc(C)n2)cc1Cl)(c1cn(C2CC2)nn1)C3 (centres unmarked) [Example 43] |
| 11.3 | Cc1ccc2c3c(nn2c1)CCC(NC(=O)c1c(Cl)cc(-n2cnc(C)n2)cc1Cl)(c1cn(C2(C)CC2)nn1)C3 (centres unmarked) [Example 50] |
| 2.56 | Cc1ccc2c(c1)nc1n2CC(NC(=O)c2ccc(-n3cnnc3)cc2Cl)(c2ccccc2)CC1(F)F (centres unmarked) [Example 85] |
| 5.4 | Cc1ccc2c(c1)nc1n2CC(NC(=O)c2ccc(-n3cnnc3)cc2Cl)(c2cccc(F)c2)CS1 (centres unmarked) [Example 214, 2-chloro-N-(3-(3-fluorophenyl)-8-methyl-3,4-dihydro-2H-benzo[4,5]imidazo[2,1-b][1,3]thiazin-3-yl)-4-(4H-1,2,4-triazol-4-yl)benzamide] |
| 1.58 | Cc1ccc2c(c1)c(-c1cnc(C3CC3)nc1)c1n2C[C@@](NC(=O)c2ccc(-n3cnnc3)cc2Cl)(c2ccccc2)CC1 [Example 206] |
| 4.22 | Cc1ccc2c(c1)c(-c1nnn[nH]1)c1n2C[C@@](NC(=O)c2ccc(-n3cnc(C)n3)cc2Cl)(c2ccccc2)CC1 [Example 179] |
| 8.4 | Cc1ccc2c3c([nH]c2c1)CCC(NC(=O)c1ccc(-n2cnnc2)cc1Cl)(c1cccc(F)c1)C3 (centres unmarked) [Example 109] |
| 6.92 | CNC(=O)c1ccc2ncn(-c3ccc(C(=O)N[C@]4(C)CCc5nn6c(C)ccc(O)c6c5C4)c(Cl)c3)c2c1 [Example 33] |
| 5.66 | Cc1ccc2c(c1)nc1n2CC(NC(=O)c2ccc(-n3cnnc3)cc2Cl)(c2cccc(Cl)c2)CC1 (centres unmarked) [Example 84] |

| IC50 [nM] | SMILES |
| --- | --- |
| 4.04 | Cc1ccc2c(c1)c(C1=CC(=O)N(C)CC1)c1n2C[C@@](NC(=O)c2ccc(-n3cnnc3)cc2Cl)(c2ccccc2)CC1 [Example 204] |
| 15.2 | O=C(N[C@]1(c2ccccc2)CCc2nc3cc(Cl)ccc3n2C1)c1ccc(-n2cnnc2)cc1Cl [Example 71] |
| 8.27 | Cc1ccc2c(c1)c(-c1cncc(C(=O)O)c1)c1n2C[C@@](NC(=O)c2ccc(-n3cnnc3)cc2Cl)(c2ccccc2)CC1 [Example 208] |
| 3.51 | Cc1ccc2c(c1)c(-c1cccnc1)c1n2C[C@@](NC(=O)c2ccc(-n3cnnc3C)cc2Cl)(c2ccccc2)CC1 [Example 187] |
| 17.7 | Cc1ncn(-c2cc(Cl)c(C(=O)NC3(c4ccccc4)CCc4nn5cc(F)ccc5c4C3)c(Cl)c2)n1 (centres unmarked) [Example 32] |
| 1.17 | O=C(O)Cn1c2c(c3ccc(Cl)cc31)C[C@@](NC(=O)c1ccc(-n3cnnc3)cc1Cl)(c1cccc(F)c1)CC2 [Example 119] |
| 2.87 | Cc1ccc2c(c1)c(CC(=O)O)c1n2C[C@@](NC(=O)c2ccc(-n3cnnc3)cc2Cl)(c2ccccc2)CC1 [Example 151] |
| 9.97 | COC(=O)/C=C/c1c2n(c3ccc(C)cc13)C[C@@](NC(=O)c1ccc(-n3cnc(C)n3)cc1Cl)(c1ccccc1)CC2 [Example 195] |
| 3.6 | COC(=O)/C=C/c1c2n(c3ccc(C)cc13)C[C@@](NC(=O)c1ccc(-n3cnnc3)cc1Cl)(c1ccccc1)CC2 [Example 181] |
| 2.92 | Cc1ccc2c(c1)nc1n2C[C@@](NC(=O)c2ccc(-n3cnnc3)cc2Cl)(c2ccc3ccccc3c2)CC1 [Example 98] |
| 6.94 | CC(=O)c1ccc(-c2c3n(c4ccc(C)cc24)C[C@@](NC(=O)c2ccc(-n4cnnc4)cc2Cl)(c2ccccc2)CC3)cn1 [Example 207] |
| 5.31 | Cc1cc(O)c2c3c(nn2c1)CCC(NC(=O)c1c(Cl)cc(-n2cc(CCO)nn2)cc1Cl)(c1ccccc1)C3 (centres unmarked) [Example 51] |
| 13.6 | Cc1ccc2c3c([nH]c2c1)CC[C@](NC(=O)c1c(Cl)cc(-n2cnc(C)n2)cc1Cl)(c1nc(C)c(C)s1)C3 [Example 116] |
| 4.27 | Cc1ccc2c(c1)nc1n2CC(NC(=O)c2ccc(-n3cnc(C)n3)cc2Cl)(c2cccc(C(=O)O)c2)CC1 (centres unmarked) [Example 99] |
| 5.34 | CNC(=O)c1ccc2c(c1)ncn2-c1ccc(C(=O)N[C@]2(C)CCc3nn4c(C)ccc(O)c4c3C2)c(Cl)c1 [Example 34] |
| 10.5 | CNC(=O)c1ccc2c(c1)ncn2-c1ccc(C(=O)NC2(C)CCc3nn4cc(C)ccc4c3C2)c(Cl)c1 (centres unmarked) [Example 20] |
| 4.03 | Cc1ccc(O)c2c3c(nn12)CC[C@@](C)(NC(=O)c1ccc(-n2cnc4ccc(C(=O)N5CC(O)C5)cc42)cc1Cl)C3 [Example 53] |
| 8.92 | Cc1ccc2c(c1)nc1n2C[C@](C)(NC(=O)c2ccc(-n3cnc4cc(C(N)=O)ccc43)cc2Cl)CC1 [Example 75] |
| 6.95 | Cc1ccc2c3c(nn2c1)CCC(NC(=O)c1c(Cl)cc(-n2cnnc2)cc1Cl)(c1cccc(F)c1)C3 (centres unmarked) [Example 31] |
| 7.84 | CCn1cc(C2(NC(=O)c3c(Cl)cc(-n4cnc(C)n4)cc3Cl)CCc3nn4cc(C)ccc4c3C2)nn1 (centres unmarked) [Example 41] |
| 14.1 | Cc1ccc2c(c1)nc1n2CC(NC(=O)c2ccc(-n3cnc(C)n3)cc2Cl)(c2ccc(F)cc2)CC1 (centres unmarked) [Example 79] |
| 19.1 | COC(=O)CCc1c2n(c3ccc(C)cc13)C[C@@](NC(=O)c1ccc(-n3cnnc3)cc1Cl)(c1ccccc1)CC2 [Example 185] |
| 15.2 | Cc1ccc2c3c([nH]c2c1)CCC(NC(=O)c1ccc(-n2cnnc2)cc1Cl)(c1cc(F)cc(Cl)c1)C3 (centres unmarked) [Example 114] |

| SMILES | IC50 [nM] |
| --- | --- |
| Cc1ccc2c(c1)c(C(N)=O)c1n2C[C@@](NC(=O)c2ccc(-n3cnnc3C)cc2Cl)(c2ccccc2)CC1 [Example 147] | 2.05 |
| Cc1ccc2c(c1)c(C(=O)C(F)(F)F)c1n2C[C@@](NC(=O)c2ccc(-n3cnnc3)cc2Cl)(c2ccccc2)CC1 [Example 192, 2-chloro-N-(2-methyl-7-phenyl-10-(2,2,2-trifluoroacetyl)-6,7,8,9-tetrahydropyrido[1,2-a]indol-7-yl)-4-(4H-1,2,4-triazol-4-yl)benzamide, TFA] | 5.19 |
| Cc1ccc2c(c1)c(C(=O)O)c1n2C[C@@](NC(=O)c2ccc(-n3cnn(C)c3=O)cc2Cl)(c2ccccc2)CC1 [Example 169, (S)-3-(7-(2-chloro-4-(4H-1,2,4-triazol-4-yl)benzamido)-2-methyl-7-phenyl-6,7,8,9-tetrahydropyrido[1,2-a]indol-10-yl)propanoic acid] | 1.68 |
| CC(=O)c1c2n(c3ccc(C)cc13)C[C@@](NC(=O)c1ccc(-n3cnc(C)n3)cc1Cl)(c1ccccc1)CC2 [Example 144] | 1.85 |
| Cc1ccc2c(c1)c(C(N)=O)c1n2C[C@@](NC(=O)c2ccc(-n3cnnn3)cc2Cl)(c2ccccc2)CC1 [Example 140] | 8.63 |
| COC(=O)c1c2n(c3ccc(C)cc13)C[C@@](NC(=O)c1ccc(-n3cnn(C)c3=O)cc1Cl)(c1ccccc1)CC2 [Example 186] | 7.12 |
| Cc1ccc2c(c1)c(C(=O)O)c1n2C[C@@](NC(=O)c2ccc(-n3cnc(C)n3)cc2Cl)(c2cccc(F)c2)CC1 [Example 171] | 0.791 |
| Cc1ccc2c(c1)c(C(=O)C(F)(F)F)c1n2C[C@@](NC(=O)c2c(Cl)cc(-n3cnnc3)cc2Cl)(c2ccccc2)CC1 [Example 210] | 13.6 |
| Cc1ccc2c(c1)c(C(N)=O)c1n2C[C@](C)(NC(=O)c2ccc(-n3cnnc3)cc2Cl)CC1 [Example 126] | 17.8 |
| Cc1ccc2c(c1)c(CCC(N)=O)c1n2C[C@@](NC(=O)c2ccc(-n3cnnc3)cc2Cl)(c2ccccc2)CC1 [Example 161, (S)—N-(10-(3-amino-3-oxopropyl)-2-methyl-7-phenyl-6,7,8,9-tetrahydropyrido[1,2-a]indol-7-yl)-2-chloro-4-(4H-1,2,4-triazol-4-yl)benzamide 2,2,2-trifluoroacetate] | 19.1 |
